This passage reports inhibition results from PubChem BioAssay AID602438 (Sanford-Burnham Center for Chemical Genomics, 2012).

The chains behind the UniProt entries cited, without tags or fusion partners.
UniProt O14786, whole entry: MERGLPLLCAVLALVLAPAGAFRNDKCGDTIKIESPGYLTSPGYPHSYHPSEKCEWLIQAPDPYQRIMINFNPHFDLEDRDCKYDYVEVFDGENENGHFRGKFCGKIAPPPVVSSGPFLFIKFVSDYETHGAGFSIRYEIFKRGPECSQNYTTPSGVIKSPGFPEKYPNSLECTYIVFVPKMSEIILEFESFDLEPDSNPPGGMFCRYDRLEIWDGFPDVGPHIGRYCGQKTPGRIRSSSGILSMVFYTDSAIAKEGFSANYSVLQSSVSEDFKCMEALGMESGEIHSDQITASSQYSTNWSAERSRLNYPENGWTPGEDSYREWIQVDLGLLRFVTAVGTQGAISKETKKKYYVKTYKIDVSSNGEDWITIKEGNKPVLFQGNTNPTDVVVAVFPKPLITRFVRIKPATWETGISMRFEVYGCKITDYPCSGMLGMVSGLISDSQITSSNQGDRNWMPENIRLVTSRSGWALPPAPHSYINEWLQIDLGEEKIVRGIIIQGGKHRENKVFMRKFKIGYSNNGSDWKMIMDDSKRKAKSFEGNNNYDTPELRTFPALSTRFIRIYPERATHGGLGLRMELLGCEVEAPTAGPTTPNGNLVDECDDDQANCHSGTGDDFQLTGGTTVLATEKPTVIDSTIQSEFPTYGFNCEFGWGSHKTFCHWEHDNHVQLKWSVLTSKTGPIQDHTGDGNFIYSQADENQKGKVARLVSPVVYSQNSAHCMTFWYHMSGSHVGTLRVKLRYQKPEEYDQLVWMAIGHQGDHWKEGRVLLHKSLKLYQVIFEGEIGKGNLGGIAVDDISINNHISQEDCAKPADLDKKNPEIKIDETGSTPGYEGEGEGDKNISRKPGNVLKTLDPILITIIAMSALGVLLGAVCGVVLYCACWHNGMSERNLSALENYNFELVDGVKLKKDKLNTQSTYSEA

This is a selection; strong and weak results do not stand in their true shares. Some structures show a salt or complex split into parts, the way the source records it. The source made the active and inactive calls.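 Rule for the calls: active = inhibition or corrected inhibition above about 18%, plus a signal ratio from 0.5 to 1.5 (limit read from the data, passing the limit was not always enough); inactive = the rest.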

This experiment has as its target Neuropilin-1 (Homo sapiens) (UniProt O14786). Kind of experiment: NRP-1/CendR peptide interaction modulators – biochemical, fluorescence polarization, uHTS, primary screen (AID 602438). Conditions: FAM-RPARPAR peptide binding to NRP-1, fluorescence polarization; at 25 µM; hits give high values. (In fluorescence polarisation assays a small probe gives low polarisation when free and higher when bound to something large.)
For orientation: inhibition means the change of the read-out against control, counted positive when it falls. As to `O=C1C(O)=C([N+](=O)[O-])C(=O)C(O)=C1[N+](=O)[O-]`, the inhibition is inactive: 17.9%.

As to `COc1ccc(OP(C)(=O)Nc2ccccc2Br)cc1` (centres undefined), the inhibition is inactive: 4.6%.

`COc1ccccc1OP(C)(=O)Nc1ccc(C)c(C)c1` (centres undefined): the inhibition is inactive: 7.3%.

Take `CP(=O)(OCCOc1ccccc1)OCCOc1ccccc1`: the inhibition is inactive: 6.6%.

On to `CCCCCCCCCCCCCCCC1C[N+](C)(C)CCOP(C)(=O)O1` (centres undefined), for which the inhibition is inactive: 8.5%.

Regarding `CP(=O)(Nc1ccc(Cl)cc1Cl)Oc1ccccc1` (centres undefined), the inhibition is inactive: -9.2%.

On to `CP(=O)(OC12CC3CC(CC(C3)C1)C2)OC12CC3CC(CC(C3)C1)C2`, for which the inhibition was inactive: 12.4%.

Consider `CCOC(=O)c1ccc(NP(C)(=O)Oc2ccc(Cl)cc2)cc1` (centres undefined), for which the inhibition is inactive: -0.5%.

For the molecule `COc1ccc(OP(C)(=O)Nc2ccc(Br)cc2)cc1` (centres undefined), the inhibition is inactive: -1.2%.

Consider `CCN(CC)CC(O)COC(=O)C(O)(c1ccccc1)C1CCCCC1` (centres undefined), for which the inhibition is inactive: -4.6%.

For `CCc1ccc(OP(C)(=O)Nc2cccnc2)cc1` (centres undefined), the inhibition was inactive: 0.9%.

For `CP(=O)(Oc1ccccc1)N1CCOC1=O` (centres undefined), the inhibition was inactive: -3.8%.

Take `O=C(OCCCN1CCCC1)C(O)(c1ccccc1)C1CCCCC1` (centres undefined): the inhibition is inactive: -13.5%.

Regarding `COc1ccccc1OP(C)(=O)Nc1c(C)n(C)n(-c2ccccc2)c1=O` (centres undefined), the inhibition was active: 29.6%.

With `CP(=O)(Nc1ccc(Cl)cc1)Oc1ccc(F)cc1` (centres undefined), the inhibition is inactive: -7.6%.

With `CC(C)(C)c1ccc(OP(C)(=O)O)cc1`, the inhibition is inactive: 3.8%.

`COc1ccccc1OP(C)(=O)Nc1ccccc1Br` (centres undefined): the inhibition was inactive: 2%.

Consider `CN(C)C(=O)c1c([N+](=O)[O-])cc([N+](=O)[O-])cc1[N+](=O)[O-]`, for which the inhibition was inactive: 2.3%.

In the case of `CP(=O)(Nc1ccc(SC(F)(F)F)cc1)Oc1ccc(F)cc1` (centres undefined), the inhibition was inactive: 5.1%.

For `CCOP(C)(=S)SCC(=O)NC(C)(CC)C(=O)O` (centres undefined), the inhibition was inactive: -1.7%.

As for `CP(=O)(Nc1ccc2c(c1)OCCO2)Oc1ccccc1` (centres undefined), the inhibition is inactive: 3.9%.

As for `O=[N+]([O-])c1cc([N+](=O)[O-])c(C(F)(F)F)c([N+](=O)[O-])c1O`, the inhibition is inactive: -8.8%.

In the case of `Cc1ccccc1NP(C)(=O)Nc1ccccc1C`, the inhibition was inactive: -4.6%.

For `COc1ccc(OP(C)(=O)Nc2cccc(Br)c2)cc1` (centres undefined), the inhibition is inactive: 0.9%.

As for `COc1ccc(NP(C)(=O)Oc2ccccc2OC)cc1` (centres undefined), the inhibition was inactive: -1.9%.

For the molecule `CN(C)CCOC(=O)C(O)(c1ccccc1)C1CCCCC1` (centres undefined), the inhibition is inactive: 2.6%.

For the molecule `Cc1cc(-c2cccc3ccccc23)c(C)cn1.O=[N+]([O-])c1cc([N+](=O)[O-])c(O)c([N+](=O)[O-])c1`, the inhibition was inactive: -5.5%.

As to `O=[N+]([O-])c1cc([N+](=O)[O-])c(NCC2CCS(=O)(=O)C2)c([N+](=O)[O-])c1` (centres undefined), the inhibition was inactive: 14.1%.

With `O=[N+]([O-])c1ccc(OP2(=O)COCCO2)cc1` (centres undefined), the inhibition was inactive: -0.6%.

In the case of `Cc1c(C(c2ccc3c(c2)OCO3)c2c(C)n(C)n(-c3ccccc3)c2=O)c(=O)n(-c2ccccc2)n1C.O=[N+]([O-])c1cc([N+](=O)[O-])c(O)c([N+](=O)[O-])c1`, the inhibition is inactive: 5.1%.

As for `CCN(CC)CCCNc1ccccc1[N+](=O)[O-].O=[N+]([O-])c1cc([N+](=O)[O-])c(O)c([N+](=O)[O-])c1`, the inhibition was inactive: -2.4%.

Turning to `COc1ccc(OP(C)(=O)Nc2ccc(SC(F)(F)F)cc2)cc1` (centres undefined), the inhibition was inactive: -10.2%.

`CCOC(=O)c1ccc(NP(C)(=O)Oc2ccc(F)cc2)cc1` (centres undefined): the inhibition is inactive: 0.9%.

Turning to `CCN(CC)CCCOC(=O)C(O)(c1ccccc1)C1CCCCC1` (centres undefined), the inhibition is inactive: -3.8%.

Consider `Cc1c([N+](=O)[O-])cc([N+](=O)[O-])c(Br)c1[N+](=O)[O-]`, for which the inhibition is inactive: -0.8%.

Regarding `CCCCCOc1ccc(NP(C)(=O)Oc2ccc(Cl)cc2Cl)cc1` (centres undefined), the inhibition was inactive: 8.2%.

Turning to `O=[N+]([O-])c1cc([N+](=O)[O-])c(OC2CCCCC2O)c([N+](=O)[O-])c1` (centres undefined), the inhibition is inactive: -11.1%.

`CP(=O)(Nc1ccccc1)Oc1ccc(F)cc1` (centres undefined): the inhibition is inactive: 0.2%.

In the case of `O=[N+]([O-])c1cc([N+](=O)[O-])c(Nc2ccc(Cl)cc2)c([N+](=O)[O-])c1`, the inhibition was inactive: 0.2%.

For the molecule `CC(C)c1ccc(OP(C)(=O)Nc2ccc(SC(F)(F)F)cc2)cc1` (centres undefined), the inhibition is inactive: -8.1%.

On to `CP(=O)(Nc1ccccc1F)Oc1ccccc1` (centres undefined), for which the inhibition was inactive: -7.7%.

For `O=C(OCCN1CCN(CCOCc2ccccc2)CC1)C(O)(c1ccccc1)c1ccccc1`, the inhibition was inactive: 3.8%.

Consider `O=C(OC1CN2CCC1CC2)c1ccc([N+](=O)[O-])cc1` (centres undefined), for which the inhibition is inactive: 6.2%.

Consider `COc1ccc2c(c1O)-c1c(O)c(OC)cc3c1[C@H](C2)[N+](C)(C)CC3.O=[N+]([O-])c1cc([N+](=O)[O-])c([O-])c([N+](=O)[O-])c1[O-]`, for which the inhibition was inactive: 10.2%.
